Experimental data reported in article PMC4047407 (The Journal of Biological Chemistry, 2014).

The chains behind the UniProt entries cited, without tags or fusion partners.
UniProt P31403, whole entry, stated change not applied: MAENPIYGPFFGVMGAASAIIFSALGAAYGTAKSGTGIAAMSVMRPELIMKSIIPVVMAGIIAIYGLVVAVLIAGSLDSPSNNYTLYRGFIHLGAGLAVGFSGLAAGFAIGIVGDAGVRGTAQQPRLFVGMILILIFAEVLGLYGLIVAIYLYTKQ

Biological target: T1, V-ATPase from S. cerevisiae BMA64-1B deleted for the VMA3 gene but expressing the M. sexta c subunit (Manduca sexta, UniProt P31403)
T1 construct: expressed in transfected cells; host or cells: Saccharomyces cerevisiae BMA64-1B deleted for VMA3; vacuolar membranes
Experiment: V-ATPase assay on yeast vacuolar membranes, strain expressing the M. sexta c subunit
Assay type: biochemical, Saccharomyces cerevisiae / Manduca sexta subunit c
Experimental: V-ATPase assays based on the detection of released phosphate using the M. sexta V-ATPase or yeast vacuolar membranes were carried out as reported previously ([23], [28], [29]).
FIGURE 5. Inhibition of yeast V-ATPase activity. V-ATPase activity from the wild type S. cerevisiae strain BMA64-1B (WT) and BMA64-1B deleted for the VMA3 gene but expressing the M. sexta c subunit was measured in the presence of bafilomycin A1 (open circles) and PA1b (filled circles). For comparison, inhibition of the purified V1Vo holoenzyme of M. sexta (squares) by PA1b is included.

Question: How did the Ki turn out when `CO/C1=C\C(C)=C\[C@@H](C)[C@@H](O)[C@@H](C)C/C(C)=C/C=C/[C@H](OC)[C@@H]([C@@H](C)[C@@H](O)[C@H](C)[C@@]2(O)C[C@@H](O)[C@H](C)[C@@H](C(C)C)O2)OC1=O` [bafilomycin, bafilomycin A1] was run?
Answer: ~2.4 nM
